From ChEMBL document CHEMBL2086370 (J Med Chem, 2012)

Chains of the proteins cited; added tags and fusions are not shown.
UniProt P41146, whole entry: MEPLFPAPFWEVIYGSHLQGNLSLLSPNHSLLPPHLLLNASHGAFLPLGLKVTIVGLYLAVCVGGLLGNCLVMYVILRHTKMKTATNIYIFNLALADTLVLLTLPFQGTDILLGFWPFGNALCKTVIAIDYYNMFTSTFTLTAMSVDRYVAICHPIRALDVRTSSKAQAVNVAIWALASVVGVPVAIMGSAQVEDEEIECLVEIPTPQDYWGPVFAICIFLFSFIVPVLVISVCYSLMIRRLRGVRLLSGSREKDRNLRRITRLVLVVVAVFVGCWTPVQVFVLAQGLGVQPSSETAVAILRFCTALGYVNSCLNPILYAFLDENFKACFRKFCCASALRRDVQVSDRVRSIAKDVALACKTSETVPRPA

Target: Nociceptin receptor (Homo sapiens) (UniProt P41146)
Test: Agonist activity at human cloned NOP receptor expressed in CHO cell membranes after 30 mins by [35S]GTPgammaS binding assay relative to nociceptin

For `CNC(=O)Cn1c(=O)n(C2CCN([C@@H]3Cc4cccc5cccc3c45)CC2)c2ccccc21`, the Efficacy was 129%.
